From PubChem BioAssay AID602289 (National Center for Advancing Translational Sciences (NCATS), 2012)
Only a part is listed here, and it is no random draw. The source made the active and inactive calls.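 The calls were made as follows: active = inhibition at or above 60%; inconclusive = inhibition from 0% up to below 60%; inactive = no inhibition observed.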

Assay: qHTS Assay for Small Molecule Inhibitors of Mitochondrial Division or Activators of Mitochondrial Fusion: Hit Validation in Malachite Green Assay;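 also: plate controls were DMSO wells with GTPase for no effect and protein-free buffer wells for full effect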
Details: purified GTPase, malachite green phosphate release, A650; stronger effect = higher value
Excerpt: The budding yeast S. cerevisiae is a powerful system to study mitochondrial fusion. Unlike other organisms, yeast cells without functional mitochondrial DNA (mtDNA) can be propagated and studied as long as they maintain a mitochondrial compartment and are provided with a fermentable carbon source. When mitochondrial fusion is blocked in yeast, mitochondrial tubules rapidly fragment and division continues unopposed. Under conditions where fusion is compromised in mammalian cells, nearly identical changes in mitochondrial structure have been observed. Thus, these findings indicate that steady state mitochondrial structure in cells is a characteristic and specific indicator of fusion activity. Mounting evidence has pointed to a connection between mitochondrial dynamics and apoptosis in mammalian cells. These studies indicate that in mammalian cells mitochondrial dynamics are more integrated into cellular processes than in yeast cells and have evolved not only to distribute the organelle but also to aid in the regulation of cellular homeostasis. Mitochondrial fusion proteins attenuate apoptosis by inhibiting the release of cytochrome c from mitochondria, in part by controlling cristae structures. […]

Structure (SMILES) | inhibition
O=[N+]([O-])c1cc([N+](=O)[O-])c(-c2ccn[nH]2)s1 | active: 98.7%
